Experiment: Solubility of water in solvent, solvent in water; solubility in water
Format: physicochemical
Settings: in words

CCCCOC(=O)CC(O)(CC(=O)OCCCC)C(=O)OCCCC
Solubility in water: water insoluble

Source: patent US7163589B2 (priority 2001, dated 2007)
